PMC3460729, “Innate immune properties of selected human neuropeptides against Moraxella catarrhalis and nontypeable Haemophilus influenzae” (BMC Immunology, 2012)

Key:
[1] = system: H. influenzae ATCC 49247, NTHi3, NTHi6; conditions: ATCC 49247, 3 h
Protocol: (§1) For the radial diffusion assay a mid-log phase bacteria were diluted to the concentration of ~ 1–2 × 10^6 CFU/ml in 10 ml of melted and cooled to 42°C, 1% agarose (w/v, molecular biology grade) in 10 mM sodium phosphate containing 1/100 dilution of full strength BHI and 0.02% (v/v) Tween 20 (Sigma). After vigorous mixing, the bacteria in the agarose were poured onto Petri plate forming under-layer in which 3 mm diameter sterile wells were cut. The wells were filled with serially diluted neuropeptides (5 μl) at concentrations ranging from 10^−6 M to 10^−3 M and plates were incubated for 3 h at 37°C to allow peptide diffusion. The plates were then overlaid with 10 ml of the buffered 1% agarose containing 6% BHI (w/v) and allowed to harden. […] The MIC value was determined as the x-axis intercept obtained from the relationship between the diameter of radial diffusion zones versus NP concentration. […] Polymyxin B was used as a positive control.

[2] = system: M. catarrhalis ATCC 25238, Mc5, Mc6; conditions: ATCC 25238, 3 h
Protocol: as §1

E. coli ML-35p = experiment: ONPG-mediated β-galactosidase membrane permeability assay; assay type: cell-based, Escherichia coli
Protocol: To measure the activity of neuropeptides in permeabilization of bacterial membrane, the ONPG-mediated β-galactosidase microplate assay was used. Permeabilization was measured using E. coli ML-35 with constitutive cytoplasmic β-galactosidase activity as previously described. Briefly, 18 h E. coli ML-35p in TSB was recultivated in TSB until mid-log phase (OD600 = 0.5). Flasks were put on ice for 20 min, and 2 ml of bacterial suspensions were transferred to Eppendorf tubes, washed twice with 10 mM sodium phosphate NaPB (pH 7.4) and suspended in NaPB to OD600 = 0.5. […] Microplates were incubated at 37°C for 1.5 h and optical densities were measured every 15 minutes at λ=405 nm (spectrophotometer Opsys MR Dynex Technologist). All the assays were performed in triplicate. Two positive controls were used: polymyxin B at the final concentration of 1 μg/ml as an established model of peptide permeabilizing action, and 20% chloroform (v/v). […] The molar concentration of NP that caused such increase was extrapolated from a linear portion of NP titration curve. Negative controls constituted bacteria incubated with NaPB and ONPG but without neuropeptides.

CC[C@H](C)[C@H](NC(=O)[C@H](Cc1ccc(O)cc1)NC(=O)[C@H](Cc1c[nH]cn1)NC(=O)[C@H](CCCNC(=N)N)NC(=O)[C@H](CC(C)C)NC(=O)[C@H](C)NC(=O)[C@H](CO)NC(=O)[C@H](Cc1ccc(O)cc1)NC(=O)[C@H](Cc1ccc(O)cc1)NC(=O)[C@H](CCCNC(=N)N)NC(=O)[C@H](C)N)C(=O)N[C@@H](CC(N)=O)C(=O)N[C@@H](CC(C)C)C(=O)N[C@H](C(=O)N[C@H](C(=O)N[C@@H](CCCNC(=N)N)C(=O)N[C@@H](CCC(N)=O)C(=O)N[C@@H](CCCNC(=N)N)C(=O)N[C@@H](Cc1ccc(O)cc1)C(N)=O)[C@@H](C)O)[C@@H](C)CC [NPY18–36]
MIC [1]: 25 to 40 µM
MIC [2]: 8 to 12.5 µM
time of maximal OD increase (ONPG influx) (E. coli ML-35p; 10 μM neuropeptide): ~ 75 min
time of maximal OD increase (ONPG influx) (E. coli ML-35p; 100 μM neuropeptide): 75 min
ID50 (inducible dose) for intracellular influx of ONPG (E. coli ML-35p; dose causing 50% increase in OD405 in reference to chloroform-inducible maximum at 45 min, 10^6 CFU/ml, NaPB pH 7.4, 3 mM ONPG, 37°C, triplicate): 2.0 µM
